Reference: patent publication US7432350B2 (priority 2002, dated 2008)
Where two headings read alike, the source gives them in different places.

Sequences of proteins named here, by UniProt entry; tags and fusion partners are left off.
UniProt Q00955, whole entry S77Y: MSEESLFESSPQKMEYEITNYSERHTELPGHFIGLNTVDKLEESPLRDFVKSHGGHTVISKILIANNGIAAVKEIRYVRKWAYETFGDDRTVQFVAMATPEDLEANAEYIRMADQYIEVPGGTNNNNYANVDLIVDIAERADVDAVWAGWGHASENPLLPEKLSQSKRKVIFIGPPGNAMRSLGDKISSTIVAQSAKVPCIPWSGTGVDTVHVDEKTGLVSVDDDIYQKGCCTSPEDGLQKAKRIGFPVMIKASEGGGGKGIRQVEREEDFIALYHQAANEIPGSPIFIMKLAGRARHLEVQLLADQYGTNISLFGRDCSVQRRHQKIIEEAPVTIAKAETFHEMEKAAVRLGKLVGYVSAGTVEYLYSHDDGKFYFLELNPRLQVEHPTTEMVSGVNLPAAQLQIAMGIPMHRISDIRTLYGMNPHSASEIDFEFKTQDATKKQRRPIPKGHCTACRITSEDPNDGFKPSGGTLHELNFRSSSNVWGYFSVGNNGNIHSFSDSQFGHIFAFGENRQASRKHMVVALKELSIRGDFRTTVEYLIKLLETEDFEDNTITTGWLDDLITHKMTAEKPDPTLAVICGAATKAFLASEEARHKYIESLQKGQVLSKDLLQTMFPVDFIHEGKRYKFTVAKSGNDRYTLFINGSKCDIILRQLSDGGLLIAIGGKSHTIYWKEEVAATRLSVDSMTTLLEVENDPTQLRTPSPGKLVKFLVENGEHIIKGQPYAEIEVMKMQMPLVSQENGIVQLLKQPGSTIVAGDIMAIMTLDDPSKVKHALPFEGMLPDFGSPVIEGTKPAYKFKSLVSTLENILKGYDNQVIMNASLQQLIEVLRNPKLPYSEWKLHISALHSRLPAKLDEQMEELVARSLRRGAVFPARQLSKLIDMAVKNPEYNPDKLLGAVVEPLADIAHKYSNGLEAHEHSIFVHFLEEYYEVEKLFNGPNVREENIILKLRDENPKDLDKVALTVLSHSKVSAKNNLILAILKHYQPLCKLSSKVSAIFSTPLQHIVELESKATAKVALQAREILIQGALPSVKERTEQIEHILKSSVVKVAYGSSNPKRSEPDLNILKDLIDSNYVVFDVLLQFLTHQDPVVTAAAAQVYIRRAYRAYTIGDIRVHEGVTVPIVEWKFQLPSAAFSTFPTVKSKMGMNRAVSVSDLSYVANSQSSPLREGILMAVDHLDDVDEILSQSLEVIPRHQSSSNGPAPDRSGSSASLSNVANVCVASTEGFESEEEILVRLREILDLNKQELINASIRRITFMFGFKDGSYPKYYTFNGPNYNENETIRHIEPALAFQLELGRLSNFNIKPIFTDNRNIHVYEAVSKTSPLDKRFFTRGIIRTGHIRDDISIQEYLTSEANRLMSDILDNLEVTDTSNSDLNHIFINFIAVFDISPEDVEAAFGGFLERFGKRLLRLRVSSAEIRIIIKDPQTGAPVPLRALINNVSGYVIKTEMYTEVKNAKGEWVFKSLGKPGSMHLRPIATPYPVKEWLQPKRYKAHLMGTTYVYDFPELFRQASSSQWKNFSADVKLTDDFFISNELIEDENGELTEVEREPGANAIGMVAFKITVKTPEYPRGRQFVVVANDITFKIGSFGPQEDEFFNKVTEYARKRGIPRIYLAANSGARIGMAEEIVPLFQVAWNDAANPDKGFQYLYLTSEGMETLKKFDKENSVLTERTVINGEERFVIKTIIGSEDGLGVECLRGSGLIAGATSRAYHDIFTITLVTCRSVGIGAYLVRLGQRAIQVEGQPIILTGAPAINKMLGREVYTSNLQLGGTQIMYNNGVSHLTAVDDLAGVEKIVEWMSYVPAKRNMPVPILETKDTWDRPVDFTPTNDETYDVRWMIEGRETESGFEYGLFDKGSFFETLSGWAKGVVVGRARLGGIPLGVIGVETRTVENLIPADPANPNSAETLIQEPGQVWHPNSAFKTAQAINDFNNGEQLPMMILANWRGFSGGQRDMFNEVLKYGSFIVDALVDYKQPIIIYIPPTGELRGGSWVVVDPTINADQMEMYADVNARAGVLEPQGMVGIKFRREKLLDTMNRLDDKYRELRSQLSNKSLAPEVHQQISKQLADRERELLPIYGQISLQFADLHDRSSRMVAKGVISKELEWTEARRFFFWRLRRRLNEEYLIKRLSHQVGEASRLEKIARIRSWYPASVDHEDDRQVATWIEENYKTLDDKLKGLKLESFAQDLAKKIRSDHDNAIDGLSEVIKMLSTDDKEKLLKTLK

How the values were obtained:
[1] = biological target: full-length S. cerevisiae ACCase S77Y mutant (pCS204M) (Saccharomyces cerevisiae, UniProt Q00955, S77Y)
[2] = biological target: pCS204M (S77Y mutant full length S. cerevisiae ACCase) (Saccharomyces cerevisiae, UniProt Q00955, S77Y); type: biochemical; settings: for sensitivity of pCS204M protein activity to inhibition: 14C isotope exchange assay

Compound | soraphen binding by pCS204M [1] | sensitivity of pCS204M protein activity to inhibition [2] | Relative Enzymatic Activity (%), pCS204M ([2]; +1.5 ng/mL soraphen A) | Relative Enzymatic Activity (%), pCS204M ([2]; +1.5 μg/mL soraphen A) | Relative Enzymatic Activity (%), pCS204M ([2]; +150 μg/mL soraphen A) | Relative Enzymatic Activity (%), pCS204M ([2]; +250 μg/ml avidin)
CO[C@H]1CCCC[C@@H](c2ccccc2)OC(=O)[C@@H](C)[C@@]2(O)O[C@H]([C@@H](C)[C@H](O)[C@H]2OC)[C@@H](C)/C=C/[C@H]1OC [soraphen A] | comparable to the non-specific control | insensitive | 103% | 101% | 105% | –
avidin: avidin, inhibitor of the biotin-dependent ACCase activity in Table 4 | – | sensitive | – | – | – | 2.5%
